This note sets out measurements from ChEMBL document CHEMBL1128946, “Novel inhibitors of influenza sialidases related to GG167 structure-activity, crystallographic and Molecular dynamics studies with 4H-pyran-2-carboxylic acid 6-carboxamides” (Bioorg Med Chem Lett, 1996).

The target in this test is Neuraminidase (Influenza A virus (A/Puerto Rico/8/1934(H1N1)), UniProt P03468). Kind of test: Inhibition of influenza A sialidase (neuraminidase). The arrangement: species or system Influenza A virus (strain: A/PR/8/34).
For the compound `CCCCCCCCCN(CCC)C(=O)[C@@H]1OC(C(=O)O)=C[C@H](N)[C@H]1NC(C)=O`, the IC50 (usually the concentration at which inhibition is half-maximal) is 23 nM. To `CC(=O)N[C@@H]1[C@@H](N)C=C(C(=O)O)O[C@H]1C(=O)N(C)C` belongs 2400 nM. In the case of `CCCCN(CCCC)C(=O)[C@@H]1OC(C(=O)O)=C[C@H](N)[C@H]1NC(C)=O` it was 450 nM. As to `CCCN(CCc1ccccc1)C(=O)[C@@H]1OC(C(=O)O)=C[C@H](N)[C@H]1NC(C)=O`, the midpoint of inhibition, the IC50, lay at 5 nM.
